Measured values from patent US20260109707A1, “HETEROBIFUNCTIONAL COMPOUNDS AND METHODS OF TREATING DISEASE” (Halda Therapeutics OpCo. Inc., priority 2022, published 2026).

Legend:
[1] = test system: T-Rex 293 cell line SC3 cells lacking increased expression of androgen receptor protein; test: Cellular growth inhibition assay, T-Rex 293 SC3 cells without doxycycline (CellTiter-Glo, 72 hours); conditions: T-Rex 293 cell line SC3 cells not exposed to doxycycline (lacking increased androgen receptor expression)
Experimental: (§1) The following types of cells were prepared for this experiment: (i) a T-Rex 293 cell line having increased expression of androgen receptor protein due to exposure to doxycycline and (ii) a T-Rex 293 cell line lacking increased expression of androgen receptor protein. Ability of the test compounds to inhibit proliferation of the foregoing cell types was evaluated according to the procedures set forth below.
(§2) The doxycycline-inducible androgen receptor protein expressing cell line was established using the following protocol: T-Rex 293 cells were purchased from Invitrogen (Cat #R71007) and transfected using Lipofectamine 2000 with the wild-type androgen receptor protein sequence cloned into the pcDNA4/TO vector. Transfected cells were selected using 400 μg/mL Zeocin (Invitrogen Cat #R25001). […] Clones were analyzed for expression of androgen receptor protein in the presence and absence of 10 ng/mL doxycycline (Sigma Cat #D9891), and a single doxycycline-inducible clone (hereinafter “SC3”) was selected for use in downstream assays. […]
(§3) At the end of the treatment duration, cell viability was quantified with CellTiter-Glo 2.0 reagent (Promega Cat #G9243). […] Following incubation, the plates were spun at 3000×g for 30 seconds, then sealed with an optical adhesive cover, and luminescence readings were measured with an EnVision Plate Reader.
(§4) Data was normalized using zero luminescence for baseline. […]

T47D cells = test: Cellular growth inhibition assay for T47D cells (CellTiter-Glo, 72 hours); conditions: 72 hours treatment
Experimental: (§5) T47D cells were purchased from American Type Cell Culture (ATCC Cat #HTB-133) and then seeded on poly-D-lysine coated, black clear-bottom 384-well plates at 3000/well in 25 μL Dulbecco's Modified Eagle Medium (DMEM) supplemented with 10% w/w Fetal bovine serum (FBS), 0.2 units/mL recombinant human insulin (Gibco Cat #12585014), and 1% w/w Pen-Strep. Pen-Strep is a commercially available mixture of penicillin G and streptomycin, which is used in mammalian cell culture media to prevent bacterial contamination. Dulbecco's Modified Eagle Medium (DMEM) supplemented with 10% w/w fetal bovine serum (FBS), 0.2 units/mL recombinant human insulin, and 1% w/w Pen-Strep is herein referred to as Treatment Medium. Following seeding of cells in the plates, the plates were spun at 300×g for 30 seconds, then equilibrated to room temperature for 30 minutes, and then deposited in a humidified tissue culture incubator maintained at 37° C. with 5% CO2. […]
as §3, with “Reader (Perkin Elmer).” for “Reader.”
as §4

[2] = test system: T-Rex 293 cell line SC3 cells having increased expression of androgen receptor protein due to exposure to doxycycline; test: Cellular growth inhibition assay, T-Rex 293 SC3 cells with doxycycline (CellTiter-Glo, 72 hours); conditions: T-Rex 293 SC3 cells with increased androgen receptor expression due to doxycycline (10 ng/mL)
Experimental: as §1, §2, §3, §4

BRD4-BD1 = BRD4-BD1 (Homo sapiens, UniProt O60885); test: bromoKdELECT assay for binding affinity to BRD4-BD1; conditions: binding to BRD4-BD1, Table 4
Experimental: (§6) Compounds were tested using a bromoKdELECT assay. T7 phage strains displaying bromodomains were grown in parallel in 24-well blocks in an E. coli host derived from the BL21 strain. E. coli were grown to log-phase and infected with T7 phage from a frozen stock (multiplicity of infection=0.4) and incubated with shaking at 32° C. until lysis (90-150 minutes). The lysates were centrifuged (5,000×g) and filtered (0.2 μm) to remove cell debris. Streptavidin-coated magnetic beads were treated with biotinylated small molecule or acetylated peptide ligands for 30 minutes at room temperature to generate affinity resins for bromodomain assays. The liganded beads were blocked with excess biotin and washed with blocking buffer (SeaBlock (Pierce), 1% BSA, 0.05% Tween 20, 1 mM DTT) to remove unbound ligand and to reduce nonspecific phage binding. Binding reactions were assembled by combining bromodomains, liganded affinity beads, and test compounds in 1× binding buffer (17% SeaBlock, 0.33×PBS, 0.04% Tween 20, 0.02% BSA, 0.004% Sodium azide, 7.4 mM DTT). Test compounds were prepared as 1000× stocks in 100% DMSO. Kds were determined using an 11-point 3-fold compound dilution series with one DMSO control point. All compounds for Kd measurements are distributed by acoustic transfer (non-contact dispensing) in 100% DMSO. […] The bromodomain concentration in the eluates was measured by qPCR.

BRD4-BD2 = BRD4-BD2 (Homo sapiens, UniProt O60885); test: bromoKdELECT assay for binding affinity to BRD4-BD2; conditions: binding to BRD4-BD2, Table 5
Experimental: as §6, with “[…])” for “μm)”

VCaP cells = test: Cellular growth inhibition assay for VCaP cells (CellTiter-Glo, 72 hours)
Experimental: as §5, with “VCaP” for “T47D”, “#CRL2876)” for “#HTB-133)”, “5000/well” for “3000/well”, “(FBS)” for “(FBS), 0.2 units/mL recombinant human insulin (Gibco Cat #12585014),”, “(FBS)” for “(FBS), 0.2 units/mL recombinant human insulin,”, “C0-2.” for “CO2.”
as §3, §4

GI50 (T47D cells): < 500 nM
Kd (BRD4-BD1): 50 to 500 nM
Kd (BRD4-BD2): 50 to 500 nM
GI50 (VCaP cells): < 500 nM
SMILES: Cc1sc2c(c1C)C(c1ccc(OCCOC3CCN(c4ccc(C(=O)N[C@H]5CC[C@H](Oc6ccc(C#N)c(Cl)c6)CC5)nn4)CC3)cc1)=N[C@@H](CC(=O)NC(C)(C)C)c1nnc(C)n1-2
GI50 [1]: < 500 nM
GI50 [2]: < 500 nM
